One assay concerns the target A31 (Homo sapiens, UniProt P04439, A270S/D185E/E176V/E277Q/F33T/G231S/G80R/H175R/I121M/I218V/I322F/K168Q/L300P/L318F/M331R/P217A/Q94H/R138Q/T323A/T345S/T97I/V358M). Nature of the assay: biochemical.
In a further assay the target is DR7 (DRB1*0701) (Homo sapiens, UniProt P01903+P01911, A100R/A102G/A103Q/D57E/D86V/E43K/F76Y/K127E/L162R/M171V/P40G/Q125H/Q99D/R33Q/R42Y/R54Q/S133A/S66F/T210M/V115G/Y107V/Y59L/Y89S). As to conditions: read-out: DRB1*0701.
The next assay addresses DRB1*0901 (Homo sapiens, UniProt P01903+P01911, A100R/A103E/D57H/D86V/F55Y/F60I/F76Y/I96F/K127E/L162R/M171V/P40D/Q125H/Q99R/R33Q/R42F/S133A/S66N/T210M/V115G/W38K/Y107V/Y59G/Y89S). As to conditions: read-out: DRB1*0901.
In the next assay the target is DRB1*1101 (Homo sapiens, UniProt P01903+P01911, A100R/A169T/A87E/I96F/K41T/L162R/M171V/P40S/Q125H/Q178H/Q39Y/Q99D/R42S/S66Y/T262R/V115G/W38E). As to conditions: read-out: DRB1*1101.
Assay [1] addresses T1, DR1 (DRB1*0101) (Homo sapiens, UniProt P01903+P01911, A100R/D57E/F55L/F60I/F76Y/I96L/L162R/M171V/P40L/Q125E/R42F/V115G/Y59C). Nature of the assay: biochemical.
In the next assay the target is B*5101 (Homo sapiens, UniProt P01889, A329T/A93T/A95T/C349S/D138N/D201E/D98Y/E187L/E204Q/E69T/G107R/I218V/K202T/L105A/L119W/N104I/Q94N/R106L/R155S/R180L/S101N/S121T/S35A/S48A/V306I/V36M/Y195H/Y91F). Nature of the assay: HLA-B*5101 peptide binding (B7-like supertype).
A further assay addresses A2.1 HLA molecules (Homo sapiens, UniProt P04439, D140Y/D185E/D98H/E176V/E277Q/G131W/G231S/I119V/I121R/I166T/I218V/L300P/L318F/N151K/N90K/P208A/P217A/Q86G/Q94H/R138H/R169H/T345S).
For a further assay, the target named is A*0203 (Homo sapiens, UniProt P04439, A173T/D140Y/D185E/D98H/E277Q/G131W/G231S/I119V/I121R/I166T/I218V/L180W/L300P/L318F/N151K/N90K/P208A/P217A/Q86G/Q94H/R138H/R169H/T345S). Nature of the assay: biochemical. The class given is binding.
The target in another assay is A*0206 (Homo sapiens, UniProt P04439, D140Y/D185E/D98H/E176V/E277Q/F33Y/G131W/G231S/I119V/I121R/I166T/I218V/L300P/L318F/N151K/N90K/P208A/P217A/Q86G/Q94H/R138H/R169H/T345S). The experiment in a line: biochemical. The class given is binding.
In a further assay the target is A*6802 (Homo sapiens, UniProt P04439, A269V/D140Y/D185E/E176V/E277Q/E87N/F33Y/G231S/I121R/I166T/I218V/L180W/L300P/L318F/N151K/P208A/P217A/Q86R/R138H/R169H/S129P/T345S/V36M). The experiment in a line: biochemical. Format: binding.
The target of the next assay is HLA-A*0201 (HLA-A2.1) (Homo sapiens, UniProt P04439, D140Y/D185E/D98H/E176V/E277Q/G131W/G231S/I119V/I121R/I166T/I218V/L300P/L318F/N151K/N90K/P208A/P217A/Q86G/Q94H/R138H/R169H/T345S). The experiment in a line: biochemical.
Another assay addresses A*0202 (Homo sapiens, UniProt P04439, D140Y/D185E/D98H/E176V/E277Q/G131W/G231S/I119L/I121R/I166T/I218V/L180W/L300P/L318F/N151K/N90K/P208A/P217A/Q67R/Q86G/Q94H/R138H/R169H/T345S). Nature of the assay: biochemical.
Another assay deals with B*4501 (Homo sapiens, UniProt P01889, A329T/A65T/A93T/A95T/C349S/D138N/D201E/D98Y/E176V/E187L/E204Q/E69K/H137Y/K202T/L119W/N87E/Q56L/Q94N/R155S/R180D/S121R/S35A/S48T/V127L/V306I/V36M/W191S/Y140L/Y33H/Y91S). The experiment in a line: biochemical.
The target in a further assay is DRB1*0405 (Homo sapiens, UniProt P01903+P01911, A100R/A169T/D86S/F76Y/I96L/K127E/L162R/M171V/N62H/P40V/Q125Y/R42H/S133A/S149N/S66Y/V115G/V209L/W38E). Nature of the assay: biochemical. As to conditions: read-out: DRB1*0405. The class given is binding.
Assay [2] has as its target T1, DR1 (DRB1*0101). To be noted: read-out: DRB1*0101.

Like-named read-outs stand apart in the source and are kept apart here.

For the compound `CC(C)C[C@H](NC(=O)[C@H](C)NC(=O)CNC(=O)[C@H](C)NC(=O)[C@@H](NC(=O)CN)C(C)C)C(=O)N[C@H](C(=O)N[C@@H](C)C(=O)N[C@@H](Cc1ccccc1)C(=O)N[C@@H](CCCCN)C(=O)O)C(C)C` [HCV lorf 1858-1867], the IC50 on A31 came out at 3.3 µM.
On to `CC[C@H](C)[C@H](N)C(=O)N[C@@H](CCCNC(=N)N)C(=O)N[C@@H](CS)C(=O)N[C@H](C(=O)N[C@H](C(=O)N[C@@H](CS)C(=O)N[C@@H](CCC(N)=O)C(=O)N[C@H](C(=O)N1CCC[C@H]1C(=O)N[C@@H](CC(C)C)C(=O)N[C@@H](CS)C(=O)N1CCC[C@H]1C(=O)N[C@@H](CCC(=O)O)C(=O)N[C@@H](CCC(=O)O)C(=O)N[C@@H](CCCCN)C(=O)O)[C@@H](C)O)[C@@H](C)CC)[C@@H](C)CC` [Peptide 85.0044], for which the values for the IC50 on DR7 (DRB1*0701), on DRB1*0901 and on DRB1*1101 were 25.2 µM, 28.1 µM and 5.46 µM, respectively.
With `CSCC[C@H](NC(=O)[C@@H]1CCCN1C(=O)[C@@H]1CCCN1C(=O)[C@@H](NC(=O)[C@@H](NC(=O)[C@H](CCC(N)=O)NC(=O)[C@H](Cc1c[nH]cn1)NC(=O)CN)C(C)C)C(C)C)C(=O)N[C@@H](C)C(=O)N[C@H](C(=O)N[C@@H](CO)C(=O)N[C@@H](CCCCN)C(=O)N[C@@H](C)C(=O)N[C@@H](CCCCN)C(=O)N[C@@H](C)C(=O)O)C(C)C` [Peptide 90.0011], at DR1 (DRB1*0101) [1], the IC50 amounted to 0.166 µM.
In turn, `CC(C)C[C@H](NC(=O)[C@H](C)NC(=O)[C@H](Cc1ccccc1)NC(=O)[C@H](C)NC(=O)[C@H](CC(C)C)NC(=O)[C@H](CS)NC(=O)[C@H](Cc1c[nH]cn1)NC(=O)[C@@H]1CCCN1C(=O)[C@@H](N)Cc1ccccc1)C(=O)O` [FPHCLAFAL] displayed an IC50 on B*5101 of 0.028 µM.
`CC[C@H](C)[C@H](NC(=O)[C@H](CC(C)C)NC(=O)[C@H](CO)NC(=O)CNC(=O)[C@H](Cc1ccccc1)NC(=O)[C@@H](NC(=O)[C@@H](N)CCCCN)[C@@H](C)CC)C(=O)N[C@@H](Cc1ccccc1)C(=O)N[C@@H](CC(C)C)C(=O)N1CCC[C@H]1C(=O)N[C@@H](CCC(=O)O)C(=O)N[C@@H](CO)C(=O)N[C@@H](Cc1ccccc1)C(=O)N[C@@H](CC(=O)O)C(=O)NCC(=O)N[C@@H](CC(=O)O)C(=O)N1CCC[C@H]1C(=O)N[C@@H](C)C(=O)O` [Peptide 9014.0240] showed an IC50 on DR1 (DRB1*0101) [1] of 0.731 µM.
As to KLSGLGLNAV [Peptide F124.14], the “A*0201” value on A2.1 HLA molecules is 0.0170.
For the compound `CC(C)C[C@H](NC(=O)[C@H](CC(N)=O)NC(=O)[C@H](CO)NC(=O)[C@@H](NC(=O)[C@H](Cc1ccccc1)NC(=O)[C@H](CS)NC(=O)[C@H](C)NC(=O)[C@@H](N)Cc1ccc(O)cc1)C(C)C)C(=O)N[C@@H](C)C(=O)N[C@H](C(=O)O)C(C)C` [Peptide 9013.0248], the IC50 against A*0203 came to 0.194 µM.
In the case of `CC(C)C[C@H](NC(=O)[C@@H](N)Cc1ccc(O)cc1)C(=O)N[C@H](C(=O)N[C@@H](C)C(=O)N[C@@H](Cc1ccc(O)cc1)C(=O)N[C@@H](CCC(N)=O)C(=O)N[C@@H](C)C(=O)N[C@H](C(=O)N[C@H](C(=O)O)C(C)C)[C@@H](C)O)C(C)C` [Peptide 9016.0058], the IC50 was 0.0058 µM on A*0206, 0.047 µM at A*6802, 0.0086 µM on HLA-A*0201 (HLA-A2.1) and 0.00049 µM on A*0202.
Consider `CC(C)C[C@H](NC(=O)[C@H](Cc1ccc(O)cc1)NC(=O)[C@@H](NC(=O)[C@@H](NC(=O)[C@H](CC(N)=O)NC(=O)[C@H](CCC(N)=O)NC(=O)[C@H](C)NC(=O)[C@H](CCC(=O)O)NC(=O)[C@@H]1CCCN1)[C@@H](C)O)[C@@H](C)O)C(=O)N[C@@H](Cc1c[nH]c2ccccc12)C(=O)N[C@@H](Cc1c[nH]c2ccccc12)C(=O)N[C@H](C(=O)O)C(C)C` [Peptide 9002.0337], for which the IC50 against B*4501 stood at 0.0033 µM.
Turning to `CC[C@H](C)[C@H](NC(=O)[C@H](CS)NC(=O)[C@H](CC(=O)O)NC(=O)[C@H](CCCNC(=N)N)NC(=O)[C@H](Cc1ccc(O)cc1)NC(=O)[C@@H](NC(=O)[C@@H](NC(=O)[C@H](CS)NC(=O)[C@@H](N)CC(C)C)[C@@H](C)CC)C(C)C)C(=O)N[C@@H](C)C(=O)N[C@@H](Cc1ccc(O)cc1)C(=O)N[C@@H](C)C(=O)N[C@@H](C)C(=O)N[C@@H](CS)C(=O)N[C@@H](Cc1c[nH]cn1)C(=O)O` [Peptide 85.0123], the IC50 on DRB1*0405 stood at 0.628 µM; on DR1 (DRB1*0101) [2] it was 0.996 µM; on DR7 (DRB1*0701) it was 40.1 µM; at DRB1*0901, 10.7 µM; on DRB1*1101, 9.89 µM.
Consider `CC(C)C[C@H](NC(=O)[C@H](CO)NC(=O)[C@H](Cc1ccccc1)NC(=O)[C@H](C)NC(=O)[C@H](CC(C)C)NC(=O)[C@H](CS)NC(=O)[C@H](Cc1c[nH]cn1)NC(=O)[C@@H]1CCCN1C(=O)[C@@H](N)Cc1ccccc1)C(=O)O`, for which the IC50 on B*5101 was determined as 0.0045 µM.
On to `CC[C@H](C)[C@H](NC(=O)[C@@H](NC(=O)[C@H](Cc1c[nH]cn1)NC(=O)[C@H](CC(C)C)NC(=O)[C@H](CC(C)C)NC(=O)[C@@H](N)Cc1ccc(O)cc1)C(C)C)C(=O)N[C@@H](CCCCN)C(=O)N[C@@H](CO)C(=O)N[C@@H](CC(=O)O)C(=O)N[C@@H](CC(C)C)C(=O)O` [Peptide 9013.0152], for which, on A*0203, the IC50 is 0.352 µM.
As to `CC(C)C[C@H](NC(=O)[C@H](C)N)C(=O)N1CCC[C@H]1C(=O)N1CCC[C@H]1C(=O)N[C@H](C(=O)N[C@@H](C)C(=O)N1CCC[C@H]1C(=O)N[C@H](C(=O)O)C(C)C)C(C)C` [Peptide 1323.01], the IC50 against A*0206 is 0.789 µM; against A*6802 it was 0.165 µM; on HLA-A*0201 (HLA-A2.1) it was 0.346 µM; against A*0202 it was 0.672 µM.
